# Laboratory results taken from patent EP4834882A1, “ALDOSTERONE SYNTHETASE INHIBITOR, AND PREPARATION METHOD THEREFOR AND USE THEREOF” (dated 2026).
# Sequences of proteins named here, by UniProt entry; tags and fusion partners are left off. Residues count along the entry.
# UniProt P19099, 25-503 limits assumed: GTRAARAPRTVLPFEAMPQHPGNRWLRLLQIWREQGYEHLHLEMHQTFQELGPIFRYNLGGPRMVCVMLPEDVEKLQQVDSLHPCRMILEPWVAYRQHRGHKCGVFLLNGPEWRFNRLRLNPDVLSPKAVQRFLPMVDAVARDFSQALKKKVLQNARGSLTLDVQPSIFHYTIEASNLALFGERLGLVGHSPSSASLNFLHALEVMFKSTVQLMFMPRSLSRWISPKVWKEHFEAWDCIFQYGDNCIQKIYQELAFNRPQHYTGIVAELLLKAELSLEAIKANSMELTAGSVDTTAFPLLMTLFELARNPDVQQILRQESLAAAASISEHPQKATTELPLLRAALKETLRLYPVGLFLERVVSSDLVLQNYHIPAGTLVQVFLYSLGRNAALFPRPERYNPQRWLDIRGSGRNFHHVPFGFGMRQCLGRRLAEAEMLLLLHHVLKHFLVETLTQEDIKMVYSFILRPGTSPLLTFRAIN
# UniProt P15538, 25-503 limits assumed: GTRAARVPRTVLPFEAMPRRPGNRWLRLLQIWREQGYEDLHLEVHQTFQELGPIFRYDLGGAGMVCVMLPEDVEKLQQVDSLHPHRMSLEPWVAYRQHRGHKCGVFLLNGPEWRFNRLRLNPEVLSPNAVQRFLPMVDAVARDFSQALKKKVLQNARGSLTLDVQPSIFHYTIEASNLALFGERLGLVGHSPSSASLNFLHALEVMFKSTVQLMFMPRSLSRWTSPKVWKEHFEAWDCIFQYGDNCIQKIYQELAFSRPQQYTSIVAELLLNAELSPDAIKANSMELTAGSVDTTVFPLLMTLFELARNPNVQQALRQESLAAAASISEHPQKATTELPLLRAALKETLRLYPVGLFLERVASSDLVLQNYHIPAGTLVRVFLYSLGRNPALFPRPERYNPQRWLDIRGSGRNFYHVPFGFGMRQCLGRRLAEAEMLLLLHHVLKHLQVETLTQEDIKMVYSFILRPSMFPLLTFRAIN
# Legend:
# [1] = In vitro hepatic microsome stability; conditions: Human hepatic microsomes; for ER: slow metabolism ER<0.3, moderate 0.3<ER<0.7, fast ER>0.7; for T1/2: with NADPH, 37°C
# Experimental: The compounds of Examples 1-49 (test substances) and the positive control drug were dissolved in DMSO to prepare stock solutions (10 mM). The stock solutions were diluted with acetonitrilewater (1:1, v/v) to obtain 100 µM solutions, which was further diluted with 0.1 M potassium phosphate buffer to obtain working solutions (30 µM).
# NADPH powder was weighed and dissolved in 0.1 M potassium phosphate buffer to obtain a 5 mg/mL solution.
# Hepatic microsomes from each species (20 mg/mL) were diluted with 0.1 M potassium phosphate buffer to parepare 0.8 mg/mL hepatic microsome working solutions.
# 25 µL of the test substance or positive control drug working solution was added to 475 µL of the hepatic microsome working solution and mixed thoroughly. The mixture was aliquoted into a 96-well plate at 30 µL/well (n=2). For the 0 min samples, 150 µL of internal standard acetonitrile solution was added to precipitate proteins, followed by the addition of 15 µL of NADPH solution, and these samples were then stored in a refrigerator at 4°C. Other samples were pre-incubated at 37°C for 10 min. For the 20 min and 60 min samples, 15 µL of NADPH solution was added to initiate the reaction. For samples without NADPH, 15 µL of potassium phosphate buffer was added instead. All samples were then incubated at 37°C. Upon reaching the designated reaction time, 150 µL of internal standard acetonitrile solution was added to precipitate proteins.
# The precipitated samples were vortexed and then centrifuged at 4000 rpm for 5 min. 100 µL of purified water was added to the supernatant , followed by LC-MS analysis.
# The peak area ratio of the analyte to the internal standard was used to calculate the relative percentage of the compound remaining after incubation (remaining rate %) and for exponential function fitting. The calculation formula was as follows: [formula] [formula] [formula]
# human CYP11B2 = human CYP11B2 (Homo sapiens, UniProt P19099); assay: H295R steroidogenesis assay, inhibition of aldosterone synthase; conditions: read-out: CYP11B2 Ki; NCI-H295R cells, 10 µM deoxycorticosterone, 48 h, aldosterone by LC-MS; Ki = IC50/(1 + [S]/Km)
# Experimental: (§1) The H295R steroidogenesis assay system was used in the present invention for testing the enzyme activities of human CYP11B1, human CYP11B2, etc. The in vitro H295R steroidogenesis assay system utilizes a human adrenocortical carcinoma cell line (NCI-H295R cells) as a Tier 2 "in vitro assay that provides mechanistic data" for screening and prioritization purposes. The development and standardization of this method were performed in a multi-step process for screening chemical effects on steroidogenesis, and the H295R assay method has been optimized and validated according to the OECD Test Guideline (Test Guideline No. 456 H295R Steroidogenesis Assay).
# (§2) NCI-H295R cells were purchased from ATCC. After initiating culture from the original ATCC batch, NCI-H295R cells were cultured for five passages (i.e., undergo four rounds of cell divisions), and then the cells at passage five were cryopreserved and stored in liquid nitrogen.
# (§3) H295R cells were cultured in a cell culture incubator at 37°C and 5% CO2, and the medium was replaced 2-3 times per week. Cells were passaged when they reached approximately 85-90% confluency. The medium was aspirated, and the cells were washed three times with DPBS (Ca^2+ and Mg^2+ -free), and then trypsin was added to digest for 1-3 min. The digestion was terminated by adding 3 mL of culture medium. The cells were then dislodged by pipetting, and any remaining cells were rinsed off with 1 mL of medium. The cell suspension was pooled and transferred to a 15 mL centrifuge tube. After centrifuging at room temperature and 800 rpm for 5 min, the supernatant was discarded, the pellet was resuspended in 3 mL of medium, and the cell suspension was counted. The edge wells of a 96-well plate are left empty, and the remaining wells are seeded with 50,000 cells per well in 100 µL of 10% FBS DMEM/F12 (1:1) basal medium..After overnight recovery, the medium was replaced with basal medium containing 10 µM Forskolin (150 µL per well), and the cells were incubated for 48 h. After 48 h, the medium was replaced with basal medium containing 10 µM deoxycorticosterone. The compound was dissolved in DMSO to prepare a 100 mM stock solution. Starting from 100 mM, the compounds are subjected to 3-fold serial dilutions in DMSO, resulting in 10 concentration points. These 10 concentration points was then diluted 10-fold with blank DMEM:F12 (1:1) medium, resulting in a starting concentration of 10 mM. An aliquot of 1.5 µL of each compound concentration was added to the cells, achieving a final DMSO concentration of 0.1% and a starting compound concentration of 100 µM. After incubation for 48 h, 40 µL of cell supernatant was collected and analyzed for the levels of aldosterone and cortisol by LC-MS.
# (§4) The inhibition rate was calculated using the following formula: [formula]
# (§5) Using the logarithm of the compound concentration as the x-axis and the inhibition rate as the y-axis. Nonlinear regression curve fitting was performed using Graphpad 9.0 to calculate the IC50 value (Y=Bottom+(Top - Bottom)/(1+ 10^((LogIC50 - X)×HillSlope))), Ki = IC50/(1 + [S]/Km), and the test results are shown in Table 1. Unless otherwise specified, competitive inhibition is assumed for all proteases. Selectivity = CYP11B1 Ki (nM)/CYP11B2 Ki (nM); wherein, A represents a selectivity value between 0 and 50, B represents a selectivity value between 51 and 100, C represents a selectivity value between 101 and 150, and D represents a selectivity value above 151. Table 1: Inhibitory effect of compounds on CYP11B2
# human CYP11B1 = human CYP11B1 (Homo sapiens, UniProt P15538); assay: H295R steroidogenesis assay, selectivity CYP11B1 versus CYP11B2; conditions: Selectivity = CYP11B1 Ki (nM)/CYP11B2 Ki (nM); NCI-H295R cells
# Experimental: as §1, §2, §3, §4, §5
# [2] = Pharmacokinetic study in cynomolgus monkeys; conditions: Cynomolgus monkey, ig
# Experimental: • Cynomolgus monkeys: male, 180-250g, purchased from Guangxi Grandforest Scientific Primate Company, Ltd. • Reagents: DMSO (dimethyl sulfoxide), PEG400, saline, heparin, acetonitrile, formic acid, propranolol (internal standard) are all commercially available. • Instrument: AB SCIEX 7500.
# The compound was weighed and dissolved in a DMSO-PEG-400-saline (5:60:35, v/v/v) system. Following intragastric administration to cynomolgus monkeys, 200 µL of venous blood was collected into EDTA-K2 anticoagulant tubes at 30 min, 60 min, 90 min, 2 h, 3 h, 5 h, 8 h, and 24 h. The blood samples were centrifuged at 12,000 rpm for 2 min, and the plasma was collected and stored at -80°C for subsequent analysis. An appropriate amount of the test compound was accurately weighed and dissolved in DMSO to a concentration of 2 mg/mL as a stock solution. Appropriate volumes of the compound stock solution were accurately pipetted and diluted with acetonitrile to prepare a series of standard solutions. A series of standard solutions were prepared at concentrations equivalent to plasma concentrations of 0.3, 1, 3, 10, 30, 100, 300, 1000, and 3000 ng/mL by accurately pipetting 10 µL of each standard solution and adding it to 90 µL of blank plasma, followed by vortexing to mix. Quality control samples were prepared at plasma concentrations of 2.4, 120, and 2400 ng/mL. Duplicate samples were analyzed for each concentration , and the standard curve was established. Subsequently, 30 µL aliquot of plasma was taken, and 150 µL of acetonitrile solution containing the internal standard propranolol (50 ng/mL) was added. After vortexing to mix, 100 µL of purified water was added, and the mixture was vortexed again to mix. It was then centrifuged at 4000 rpm for 5 minutes, and the supernatant was collected for LC-MS analysis. The LC-MS detection conditions were as follows: Chromatographic column: YMC Triart C18, 50×3.0mm, 2.1µm. Mobile phase: gradient elution with a mixture of water (containing 0.1% formic acid) and acetonitrile as described in the table below:
# After the plasma concentration was determined by LC-MS, the pharmacokinetic parameters were calculated using WinNonlin 6.1 software with a non-compartmental model, and the results are shown in Table 4. Table 4 Pharmacokinetic results of the compounds of the present invention in Cynomolgus monkey
# [3] = Rat pharmacokinetic study; conditions: SD rats
# From the text: • SD rats: male, 180-250g, purchased from Beijing Vital River Laboratory Animal Technology Co., Ltd. • Reagents: DMSO (dimethyl sulfoxide), PEG-400 (polyethylene glycol 400), saline, heparin, acetonitrile, formic acid, and propranolol (internal standard) are all commercially available. Instrument: AB SCIEX QTRAP 5500+.
# The compounds of Examples 1-49 of the present invention were weighed and dissolved in a DMSO-PEG-400-saline (5:60:35, v/v/v) system. Following intravenous or intragastric administration to rats, venous blood samples (200 µL) were collected into EDTA-K2 anticoagulant tubes at the following time points: 15 min, 30 min, 1 h, 2 h, 5 h, 7h, and 24 h (with an additional 5-min time point for the i.v. group). The samples were centrifuged at 12,000 rpm for 2 minutes, and the obtained plasma was stored at -80°C until analysis. A certain amount of the test sample was accurately weighed and dissolved in DMSO to 2 mg/mL as a stock solution. An appropriate amount of the stock solution of each test compound was accurately pipetted and diluted with acetonitrile to prepare a series of standard solutions. 10 µL of each of the above series of standard solutions was accurately pipetted, to which was added 90 µL of blank plasma, and vortexed to prepare plasma samples with plasma concentrations equivalent to 1, 3, 5, 10, 30, 100, 300, 1000, 3000 ng/mL. Duplicate samples were analyzed for each concentration to establish a standard curve. 30 µL aliquot of each plasma sample was used (samples from the 5, 15, and 30 min i.v. time points were diluted 5-fold prior to analysis). Then, 150 µL of acetonitrile containing the internal standard propranolol (50 ng/mL) was added. After vortexing, 100 µL of purified water was added, and the mixture was vortexed again, followed by centrifugation at 4000 rpm for 5 minutes. The supernatant was collected and analyzed by LC-MS.
# The LC-MS analysis was performed under the following conditions: Chromatographic column: YMC Triart C18, 50×3.0mm, 2.1µm. Mobile phase: gradient elution with a mixture of water (containing 0.1% formic acid) and acetonitrile as described in the table below:
# After the plasma concentration was determined by LC-MS, the pharmacokinetic parameters were calculated using WinNonlin 6.1 software with a non-compartmental model. Table 2 Pharmacokinetic results of the compounds of the present invention in rats
smiles,measurement,setting,value
CCC(=O)N[C@@H]1CCCc2c(-c3ccc4ncccc4c3)cncc21,ER,[1],<0.04
same,Ki,human CYP11B2,< 50 nM
same,Selectivity,human CYP11B1,B (B represents a selectivity value between 51 and 100)
N#Cc1ccc2cc(-c3cncc4c3CCCC4O)ccc2n1 (racemic),Ki,human CYP11B2,< 50 nM
same,Selectivity,human CYP11B1,A (A represents a selectivity value between 0 and 50)
[2H]c1ccc2cc(-c3cncc4c3CCC[C@H]4NC(=O)CC)ccc2n1,Ki,human CYP11B2,< 50 nM
same,Selectivity,human CYP11B1,A (A represents a selectivity value between 0 and 50)
CCC(=O)N[C@@H]1CCCc2c(-c3ccc4ncc(F)cc4c3)cncc21,Ki,human CYP11B2,< 50 nM
same,Selectivity,human CYP11B1,A (A represents a selectivity value between 0 and 50)
CCC(=O)N[C@@H]1CCCc2c(-c3cc(F)c4ncccc4c3)cncc21,Ki,human CYP11B2,< 50 nM
same,Selectivity,human CYP11B1,A (A represents a selectivity value between 0 and 50)
CCC(=O)N[C@@H]1CCCc2c(-c3ccc4cc(C#N)ccc4c3)cncc21,Ki,human CYP11B2,< 50 nM
same,Selectivity,human CYP11B1,A (A represents a selectivity value between 0 and 50)
CCC(=O)N[C@@H]1CCCc2c(-c3ccc4nccc(C)c4c3)cncc21,Ki,human CYP11B2,< 50 nM
same,Selectivity,human CYP11B1,A (A represents a selectivity value between 0 and 50)
CCC(=O)N[C@@H]1CCCc2c(-c3ccc4c(c3)CCC(=O)N4C)cncc21,T1/2,[1],11.5 h
same,ER,[1],0.11
same,AUClast,[2]; 0.05 mg/kg,121 ng·h/mL
same,Cmax,[2]; 0.05 mg/kg,18.9 ng/mL
same,T1/2,[2]; 0.05 mg/kg,5.52 h
same,AUClast,[2]; 20 mg/kg,46238 ng·h/mL
same,Cmax,[2]; 20 mg/kg,7157 ng/mL
same,T1/2,[2]; 20 mg/kg,4.08 h
same,AUClast,"[3]; 1 mg/kg, i.v",5050 ng·h/mL
same,Cmax,"[3]; 1 mg/kg, i.v",1270 ng/mL
same,T1/2,"[3]; 1 mg/kg, i.v",3.92 h
same,AUClast,"[3]; 5 mg/kg, p.o",28400 ng·h/mL
same,Cmax,"[3]; 5 mg/kg, p.o",2980 ng/mL
same,T1/2,"[3]; 5 mg/kg, p.o",4.37 h
CCC(=O)N[C@@H]1CCCc2c(-c3ccc4nc(C#N)ccc4c3)cncc21,AUClast,[2]; 0.05 mg/kg,122 ng·h/mL
same,Cmax,[2]; 0.05 mg/kg,14.3 ng/mL
same,T1/2,[2]; 0.05 mg/kg,8.55 h
same,AUClast,[2]; 20 mg/kg,68600 ng·h/mL
same,Cmax,[2]; 20 mg/kg,7800 ng/mL
same,T1/2,[2]; 20 mg/kg,7.06 h
same,Ki,human CYP11B2,< 50 nM
same,Selectivity,human CYP11B1,A (A represents a selectivity value between 0 and 50)
same,AUClast,"[3]; 1 mg/kg, i.v",7910 ng·h/mL
same,Cmax,"[3]; 1 mg/kg, i.v",2850 ng/mL
same,T1/2,"[3]; 1 mg/kg, i.v",2.05 h
same,AUClast,"[3]; 5 mg/kg, p.o",53800 ng·h/mL
same,Cmax,"[3]; 5 mg/kg, p.o",6280 ng/mL
same,T1/2,"[3]; 5 mg/kg, p.o",2.50 h
CCC(=O)N[C@@H]1CCCc2c(-c3ccc4onc(C)c4c3)cncc21,Ki,human CYP11B2,< 50 nM
same,Selectivity,human CYP11B1,A (A represents a selectivity value between 0 and 50)
CCC(=O)N[C@@H]1CCCc2c(-c3ccc4cnn(C)c4c3)cncc21,T1/2,[1],34.95 h
same,ER,[1],0.04
OC1CCCc2c(-c3ccc4ncccc4c3)cncc21 (centres unmarked),Ki,human CYP11B2,< 50 nM
same,Selectivity,human CYP11B1,A (A represents a selectivity value between 0 and 50)
CCC(=O)N[C@@H]1CCCc2c(-c3ccc4cnccc4c3)cncc21,Ki,human CYP11B2,< 50 nM
same,Selectivity,human CYP11B1,B (B represents a selectivity value between 51 and 100)
CCC(=O)N[C@@H]1CCCc2c(-c3ccc4ncccc4c3F)cncc21,Ki,human CYP11B2,< 50 nM
same,Selectivity,human CYP11B1,A (A represents a selectivity value between 0 and 50)
